Tested on: N2A mouse neuroblastoma cells
Assay: Acute N2A neurite retraction induced by schizophrenia plasma autoantibodies
Type: cell-based
Experimental: Methods: Plasma from five older adults with chronic schizophrenia and eight age-matched patients having another neuropsychiatric, immune or metabolic disorder was subjected to Protein-A affinity chromatography to obtain IgG autoantibodies. Mean neurite retraction (5 minutes) or cell survival (24 hours) was determined in mouse N2A neuroblastoma cells incubated with autoantibodies in the presence or absence of specific antagonists of the Gq/11/PLC/IP3R signaling pathway, Gi-coupled, beta-arrestin2-directed pathways, or LY379268.
Acute neurite retraction assay. Percent of basal neurite length in N2A cells expressing one or more proximally-located dendrite-like process was determined after interval exposure to test substances (Zimering M B, J Endocrinol Diabetes. 2018; 5(2): 10).
A twenty nanomolar concentration of protein-A eluate fraction of plasma from Pt 1 with schizophrenia was incubated with N2A cells in the presence or absence of the indicated concentration of each Gq/11, GPCR antagonist. Results are the mean+/−SD of two experiments.
A forty nanomolar concentration of plasma autoantibodies (AutoAB) from Pt 1 or Pt, schizophrenia, was incubated in the presence or absence of the indicated concentration of RhoA/Rho kinase (ROCK) inhibitor, or individual antagonists of the Gq11/PLC/IP3R signaling pathway. […]

CCCN1CCC[C@@H]2Cc3n[nH]cc3C[C@H]21 [quinpirole]
sensitization of N2A cells to SCZ autoantibody- or DOI-induced neurite retraction: did not sensitize

Reference: patent publication US11306122B2, “Compositions and methods of inhibiting the binding of plasma IgG autoantibodies to serotonin 2A receptor” (United States Government As Represented By The Department …, priority 2019, dated 2022)
